# Ab-14 light chain CDR variants: yeast mating affinities

Data: MIT Lincoln Laboratory AlphaSeq set, Li et al. 2023, doi:10.1038/s41467-023-39022-2, as distributed in FLAb.

Target: peptide PDVDLGDISGINAS, taken from heptad repeat 2 (HR2) of SARS-CoV-2 spike.

Parent: Ab-14, a human scFv built as VH, a (GGGGS)3 linker, VL. Only the CDRs of the light chain vary.
VH: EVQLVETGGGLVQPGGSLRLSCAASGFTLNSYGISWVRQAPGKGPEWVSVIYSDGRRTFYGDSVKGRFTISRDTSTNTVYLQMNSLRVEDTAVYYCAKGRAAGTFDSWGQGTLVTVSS
VL: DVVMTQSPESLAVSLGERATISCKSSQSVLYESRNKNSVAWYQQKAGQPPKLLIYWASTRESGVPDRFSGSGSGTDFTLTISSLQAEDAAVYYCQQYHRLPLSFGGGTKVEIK

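The parent was found by panning a naive human phage display library on the peptide. This is the validation round: designs drawn from the data on random variants, tested in the same kind of assay. Their group label is 14L_GP_Gibbs (GP: Gaussian process model; Gibbs: Gibbs sampling; a sequence that several methods proposed may carry one label only). AlphaSeq pools MATa yeast showing the antibodies with MATalpha yeast showing the peptide. After mating in shaken culture at 30 °C for 16 h, diploids were selected and their barcode pairs sequenced. A regression on co-assayed BCL2-family reference pairs converts the normalised counts of each replicate to an apparent Kd. Mating was done six times.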

Positions count from residue 1 of the parent VL; Q27C puts C in place of Q. The read-out is the apparent dissociation constant on a log10 scale (nM): the lower, the stronger.

{"changes": "Q27C/L30D/S33D/K36S/W56N/T59Q/E61L/S62W", "replicates, log10 nM": "0.18 0.30 0.18 0.13 0.16 0.27", "signal with controls": "2/18 (3.74)"}
{"changes": "S25L/S26Y/V29Q/K36V/S38A/W56N/T59Q/E61M", "replicates, log10 nM": "0.10 0.02 -0.11 -0.14 -0.14 0.01", "signal with controls": "2/18 (3.14)"}
{"changes": "S25L/V29W/E32K/K36A/W56N/T59Q/S62E", "replicates, log10 nM": "0.15 -0.11 0.03 -0.24 -0.06 0.27", "signal with controls": "2/18 (3.46)"}
{"changes": "S25L/S26F/V29W/S33Q/K36P/W56N/T59K/E61L/S62L", "replicates, log10 nM": "0.27 0.41 0.02 -0.08 0.34 0.33", "signal with controls": "0/18"}
{"changes": "Q27I/Y31Q/K36Q/W56E/S62V", "replicates, log10 nM": "2.81 1.45 1.49 1.80 1.11 1.79", "signal with controls": "1/18 (2.67)"}
{"changes": "S25L/S26M/Q27G/N35W/S38A/W56G/T59Q", "replicates, log10 nM": "0.97 2.82 0.71 1.31 0.91 1.02", "signal with controls": "0/18"}
{"changes": "S25V/S33Q/N35M/N37Q/W56N/T59E", "replicates, log10 nM": "0.40 0.32 0.20 0.34 0.17 0.72", "signal with controls": "0/18"}
{"changes": "S25V/V29T/L30E/N35M/W56N/T59Y/S62Q", "replicates, log10 nM": "-0.10 0.00 -0.19 -0.24 -0.07 -0.08", "signal with controls": "1/18 (3.06)"}
{"changes": "S25Q/L30M/Y31G/S33E/W56A/T59D/S62V", "replicates, log10 nM": "0.39 0.19 0.34 0.12 0.11 0.32", "signal with controls": "3/18 (2.44)"}
{"changes": "Q27P/V29E/S33D/N35A/K36F/W56H/T59Q", "replicates, log10 nM": "0.55 0.60 0.43 0.62 0.54 0.57", "signal with controls": "3/18 (3.13)"}
{"changes": "S25V/Q27P/S28E/V29W/L30W/N37A/W56H", "replicates, log10 nM": "0.74 0.88 0.67 0.58 0.39 0.82", "signal with controls": "1/18 (3.12)"}
{"changes": "S25L/Q27M/S28G/V29H/L30G/W56Q/T59Q/S62E", "replicates, log10 nM": "-0.08 -0.21 -0.17 -0.33 -0.15 -0.12", "signal with controls": "1/18 (3.72)"}
{"changes": "S25V/S26L/Y31Q/S33D/K36S/W56N/S62L", "replicates, log10 nM": "0.23 0.32 0.43 0.22 -0.04 0.27", "signal with controls": "2/18 (2.84)"}
{"changes": "S25L/S26Q/Q27F/V29S/Y31M/E32L/S33Q/W56S", "replicates, log10 nM": "0.21 0.26 0.13 0.16 0.42 0.31", "signal with controls": "2/18 (2.61)"}
{"changes": "K24H/V29Q/L30D/W56N/T59Q/E61Y/S62Q", "replicates, log10 nM": "0.24 -0.06 -0.25 -0.22 -0.03 -0.08", "signal with controls": "0/18"}
{"changes": "S25V/L30D/Y31G/E32Q/S33D/S38A/W56A", "replicates, log10 nM": "-0.09 -0.08 -0.14 -0.25 -0.46 0.06", "signal with controls": "1/18 (2.29)"}
{"changes": "S26P/Q27G/V29N/K36W/W56K/E61L/S62Q", "replicates, log10 nM": "2.54 1.81 1.53 1.65 1.64 2.07", "signal with controls": "0/18"}
{"changes": "S25F/S28E/Y31M/E32G/S33D/W56K/E61L", "replicates, log10 nM": "0.20 0.21 0.37 0.62 0.24 0.63", "signal with controls": "0/18"}
{"changes": "S25Y/S28L/L30G/Y31E/N37S/W56N/S62E", "replicates, log10 nM": "0.52 0.55 0.17 0.67 0.49 -0.01", "signal with controls": "0/18"}
{"changes": "S25I/S26Q/R34L/K36A/W56E/E61L", "replicates, log10 nM": "0.74 0.97 0.45 0.49 0.98 1.05", "signal with controls": "1/18 (1.67)"}
{"changes": "V29W/K36S/W56N/A57G/S62L/Q96D", "replicates, log10 nM": "0.41 0.29 0.38 -0.06 0.26 0.43", "signal with controls": "1/18 (1.85)"}
{"changes": "S25F/Q27I/V29W/L30G/Y31M/W56N/T59H/E61M", "replicates, log10 nM": "0.58 0.68 0.92 0.79 1.05 0.96", "signal with controls": "1/18 (2.20)"}

Extract of 3 entries:

{"changes": "S25V/S26L/Y31Q/S33D/K36S/W56N/S62L", "replicates, log10 nM": "0.23 0.32 0.43 0.22 -0.04 0.27", "signal with controls": "2/18 (2.84)"}
{"changes": "S25F/Q27I/V29W/L30G/Y31M/W56N/T59H/E61M", "replicates, log10 nM": "0.58 0.68 0.92 0.79 1.05 0.96", "signal with controls": "1/18 (2.20)"}
{"changes": "S25V/L30D/Y31G/E32Q/S33D/S38A/W56A", "replicates, log10 nM": "-0.09 -0.08 -0.14 -0.25 -0.46 0.06", "signal with controls": "1/18 (2.29)"}

Empty control strains, which show no peptide, gave a signal in 4% of pairings with all light chain designs; the median was 2.64 and 95% of these signals were weaker than 1.59. No background was subtracted. For each scFv, signals with the empty controls are counted beside the result, with their mean in brackets. The authors averaged sequences with at least three values out of six and counted those with two or fewer as poor binders. The range of this assay differs from that of the first round, and the authors advise against merging the two.